## Apparent affinities of Ab-14 variants for a coronavirus HR2 peptide

Antigen: PDVDLGDISGINAS, a 14-residue peptide of the SARS-CoV-2 spike HR2 region.

Ab-14 is the parent antibody, in scFv form: VH, then three GGGGS repeats, then VL. The heavy chain is unchanged in all variants.
VH: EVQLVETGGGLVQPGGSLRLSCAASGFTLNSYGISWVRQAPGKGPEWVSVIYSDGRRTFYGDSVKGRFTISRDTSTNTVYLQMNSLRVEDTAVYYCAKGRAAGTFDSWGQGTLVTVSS
VL: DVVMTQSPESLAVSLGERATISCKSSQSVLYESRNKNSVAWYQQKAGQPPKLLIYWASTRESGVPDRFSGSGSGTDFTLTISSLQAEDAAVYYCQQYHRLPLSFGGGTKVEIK

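The parent was found by panning a naive human phage display library on the peptide. These sequences belong to a second round, designed from the earlier measurements on random variants of the parent. Several design methods are mixed in this list. The assay is AlphaSeq: two haploid yeast populations carry antibody and antigen on their surface. After mating in shaken culture at 30 °C for 16 h, diploids were selected and their barcode pairs sequenced. Scores were corrected for input abundance and mapped to Kd with protein pairs of known affinity run in the same pool. Mating was done six times.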

The parent's light chain CDRs are KSSQSVLYESRNKNSVA, WASTRES, QQYHRLPLS; each variant's own CDRs replace them letter for letter.
Variants here have more than six changes.
Each Kd is an estimate from the mating assay, the geometric mean of the replicates in which the pair was seen; lower is stronger.
Where no diploid with the target was found in any replicate, the entry reads "nd": below detection, most likely a poor binder, though not proof of it.
Of ten entries with the parent sequence, four were seen in most replicates (averages 2.2 nM to 240 nM), three in one and three in none, so single entries are noisy.
The authors' rule: three or more of the six replicates give a measured affinity, fewer mean a poor binder.
Three control strains display no target. For all light chain designs, 4% of the pairings with them gave a signal, with a median of 430 nM and one signal in twenty below 38 nM, so weak values seen in few replicates may be background. The control count says in how many pairings with the empty strains this scFv gave a signal.
The range of this assay differs from that of the first round, and the authors advise against merging the two.

The variant MLSQMWAIGQKVSNSVA | QANMRFN | QQYDRLPLE gave 66 nM (6 of 6 replicates; controls 0 of 18). The variant MISDLTMYGSTNKNSVA | DLSTRGS | QQYHRLPLS gave 450 pM (6 of 6 replicates; controls 1 of 18). The variant KIGMTLNQLMIKKNNVA | DLVERAN | QQYHRLPLS gave 670 pM (6 of 6 replicates; controls 0 of 18). With KVSEFLRGLMGRKDSIA | DNETRNN | QQYDRLPLS the result was 140 nM (6 of 6 replicates; controls 0 of 18). The variant KLSQSVCYEQRQKNSVA | NASTRMS | QQYHRLKLS gave 130 nM (5 of 6 replicates; controls 2 of 18). The variant QLSHYKHENMGKWANVA | EMTIREK | QQYAHLPLN showed nd (0 of 6 replicates; controls 0 of 18).

With KSLGSQEYESRNKNSVA | HASTRED | QQYHCLPLS the result was 30 nM (6 of 6 replicates; controls 0 of 18). For HIDQVKAEQKTAENNIA | SGAERVW | QQYSRLPFS, the assay gave 3.3 nM (6 of 6 replicates; controls 0 of 18). The variant IIYESVGTLSRNTNSVA | DNSTREK | QQYDRLPLS gave 790 nM (4 of 6 replicates; controls 1 of 18). With VFQGQWDGVTTTNSAVA | NVDERME | QQYNRLPLM the result was 1.8 nM (6 of 6 replicates; controls 0 of 18). The variant KLSMGIEMNTRQNHNMA | EASLKDS | QQYNRLPLF showed 2.6 nM (6 of 6 replicates; controls 0 of 18). The variant TVSQVTGMLQHNKNSVA | DMNTRGS | QQYDRLPLS showed 1.6 nM (6 of 6 replicates; controls 1 of 18).

For KISQSVEYQQRNPNSVA | SASTRLS | QQYHRLPLS, the assay gave 380 pM (6 of 6 replicates; controls 1 of 18). For HISMSMNWLSRNKNSIA | EESTRES | QQYHRLPLS, the assay gave nd (0 of 6 replicates; controls 0 of 18). For KVSQSDPYDSPNKNSVA | NASTRMQ | QQYHRLPLS, the assay gave 1.2 nM (6 of 6 replicates; controls 0 of 18). The variant TISGSANYESTNKNSVA | ELTTRGS | QQYERLPLS showed 100 nM (2 of 6 replicates; controls 2 of 18). With MFSQSVMTGSFMRNSVA | QTTTREN | QQYDRLPLM the result was 10 nM (6 of 6 replicates; controls 1 of 18). The variant NLVGRVPDNYQERNAIA | DMHCRAG | QQYERLPLS gave 5.5 nM (6 of 6 replicates; controls 0 of 18).

With KISGMYGKESKNKNSVA | EMVNRES | QQYDRLPLS the result was 2.4 nM (6 of 6 replicates; controls 0 of 18). The variant MISDLTMYGSRNANSVA | DLSTRGS | QQYHRLPLS gave 1.2 nM (6 of 6 replicates; controls 0 of 18). For MISQVMNTLTRHGNNVA | DLQNRED | QQYFRLPLS, the assay gave 3.4 nM (5 of 6 replicates; controls 0 of 18). With MVSQLMLWGLHYKNSIA | EAQTRVN | QQYDRLPLF the result was 290 nM (6 of 6 replicates; controls 0 of 18). The variant MISQLYNMGTFAINSVA | QASTRNE | QQYDRLPLM showed 83 nM (6 of 6 replicates; controls 2 of 18). The variant KLQWSWLMQSRMKNSVA | HASMRES | QQYHRLPLS showed 3.9 nM (6 of 6 replicates; controls 0 of 18).

For MVTQMAMTGMMSKRSVA | NATTREE | QQYHRLPLI, the assay gave nd (0 of 6 replicates; controls 0 of 18). The variant RIRESMGYSHEGRRNIA | QADIREI | QQYSQLPLF showed 2.0 nM (6 of 6 replicates; controls 1 of 18). The variant QIGMLLNFESYKINNVA | QMSTRVN | QQYDRLPLS gave 4.0 nM (6 of 6 replicates; controls 0 of 18). The variant TLYGLSVSMSKNKNNVA | EMTTREK | QQYDRLPLI gave 6.4 nM (6 of 6 replicates; controls 3 of 18). The variant NLSAMTAHESVKSKNVA | ERSTREE | QQYNRLPLS showed 950 pM (6 of 6 replicates; controls 0 of 18). For SIDEYQWYHEAVNQNIA | DAEAVRP | QQYAMLPLS, the assay gave 4.9 nM (6 of 6 replicates; controls 1 of 18).

The variant KLYVSTMLESHEKNSIA | DLSTRGN | QQYHRLPLS showed 2.3 nM (6 of 6 replicates; controls 1 of 18). The variant KVSNSVMLESRNVNAVA | EASTRES | QDYHRLPLS showed 1.4 nM (6 of 6 replicates; controls 1 of 18). The variant VLSDTIENMASRADNIA | DTTETSY | QQYYRLPLS gave 4.6 nM (6 of 6 replicates; controls 1 of 18). With HFLSLSLHQTGNLNSVA | DAEERQE | QQYMRLPLM the result was 820 pM (6 of 6 replicates; controls 0 of 18). For KISQEDPYENRNHNNVA | HASLRES | QQYHRLPLS, the assay gave 600 pM (6 of 6 replicates; controls 0 of 18). The variant KCSQSVDYLSRNMNNVA | NASTRES | QDYHRLPLS showed 710 pM (6 of 6 replicates; controls 0 of 18).

With KLTATMRFEQKISNNIA | EVTQRSK | QQYYRLPLS the result was 3.9 nM (6 of 6 replicates; controls 0 of 18). With NISESMYFQTRMKNNIA | EVTTRER | QHYHRLPLS the result was 11 nM (6 of 6 replicates; controls 1 of 18). The variant KIGDTLNQLMTKRNNVA | DLVEREN | QQYFRLPLS gave 1.3 nM (6 of 6 replicates; controls 2 of 18).

The first 6 entries again:

The variant MLSQMWAIGQKVSNSVA | QANMRFN | QQYDRLPLE showed 66 nM (6 of 6 replicates; controls 0 of 18).
The variant MISDLTMYGSTNKNSVA | DLSTRGS | QQYHRLPLS showed 450 pM (6 of 6 replicates; controls 1 of 18).
The variant KIGMTLNQLMIKKNNVA | DLVERAN | QQYHRLPLS showed 670 pM (6 of 6 replicates; controls 0 of 18).
The variant KVSEFLRGLMGRKDSIA | DNETRNN | QQYDRLPLS showed 140 nM (6 of 6 replicates; controls 0 of 18).
The variant KLSQSVCYEQRQKNSVA | NASTRMS | QQYHRLKLS showed 130 nM (5 of 6 replicates; controls 2 of 18).
The variant QLSHYKHENMGKWANVA | EMTIREK | QQYAHLPLN showed nd (0 of 6 replicates; controls 0 of 18).

Reference: Li et al. 2023, doi:10.1038/s41467-023-39022-2. File: FLAb, binding data.